According to PubChem BioAssay AID504651 (National Center for Advancing Translational Sciences (NCATS), 2011):
“And” between values parts separate entries of the source, which are not always exact repeats. Equal entries are not always repeated. Only a part is listed here, and it is no random draw. Some of these compounds have results that are not shown, active ones among them. The source made the active and inactive calls. No stated cut-off is given here; in the data, active means potentiation above about 30%; inactive means the rest.

Sequences of proteins named here, by UniProt entry; tags and fusion partners are left off.
UniProt P21728, whole entry: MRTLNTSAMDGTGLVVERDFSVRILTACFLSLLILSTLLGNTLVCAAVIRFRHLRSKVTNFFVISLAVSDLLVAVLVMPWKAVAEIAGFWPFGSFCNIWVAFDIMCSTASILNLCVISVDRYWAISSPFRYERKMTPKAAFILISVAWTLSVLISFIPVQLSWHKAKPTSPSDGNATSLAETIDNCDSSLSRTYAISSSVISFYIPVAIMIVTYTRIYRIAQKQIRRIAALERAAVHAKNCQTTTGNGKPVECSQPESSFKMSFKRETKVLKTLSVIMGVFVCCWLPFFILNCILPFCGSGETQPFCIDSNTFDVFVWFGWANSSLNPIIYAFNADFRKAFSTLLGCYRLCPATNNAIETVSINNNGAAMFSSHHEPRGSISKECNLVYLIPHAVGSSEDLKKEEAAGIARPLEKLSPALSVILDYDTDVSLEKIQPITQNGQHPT

Biological target: D(1A) dopamine receptor (Homo sapiens) (UniProt P21728)
Test: Potentiators of Human D1 Dopamine Receptor: qHTS; further: 0% is about no effect
Conditions: HEK293 TREx D1 cells, calcium flux, dopamine EC20 potentiation; at 10 µM; hits give high values
From the text: Dopamine receptors (DARs) are involved in the etiology and/or therapy of a number of neuropsychiatric and endocrine disorders. For instance, all receptor-based antiparkinsonian drugs work via stimulating the D1 DAR subtype whereas all FDA-approved antipsychotic agents are antagonists of this receptor. […] There are three different types of allosteric modulators that we are seeking, two of which will stimulate or augment receptor signaling, allosteric agonists and potentiators, while the third, allosteric antagonists, will attenuate receptor signaling. The present primary screening assay measures compound potentiation of an EC20 dopamine response by tracking calcium flux in a […], inducible Hek293 Trex D1 cell line.
NIH Chemical Genomics Center [NCGC]
NIH Molecular Libraries Probe Centers Network [MLPCN]
Assay Submitter (PI): David Sibley
Freshly passaged cells are plated in 1536 well black, clear bottom plates at a density of 4000 cells/well in 3 ul of complete media containing 1x tetracycline inducer. After an overnight incubation at 30 C in 5% CO2, cells are loaded with 2 ul of the no wash Calcium Assay Kit (ABD Bioquest) and incubated at room temperature for 30 to 90 minutes. A 10 cycle (1 second/cycle) baseline measurement is taken and then the FDSS online 1536 pintool delivers 23 nl of compound library (as well as dopamine controls) to the plate. The plate is measured for kinetically at 1 cycle/sec for 180 seconds and is considered to be the agonist portion of the assay (eg, compounds which activate a positive calcium response during this portion are flagged as potential agonists). Following the 180 second read, 1 ul of an EC20 of dopamine is delivered by an onboard pipette head. Measurements are taken kinetically for an additional 180 seconds.

SMILES | potentiation
O=C(NCC1(N2CCCCC2)CCCCC1)c1cc([N+](=O)[O-])ccc1Cl | inactive: -3.15%
CN1[C@@H]2CC[C@H]1CC(OC(=O)C(O)(c1ccccc1)c1ccccc1)C2 (some centres undefined) | inactive: -4.15%
CC(C)N1C(=O)CC2(CCN(CCOC(=O)C(O)(c3ccccc3)c3ccccc3)CC2)C1=O | inactive: 10.6%
COc1cc(SC)ccc1C(=O)NCC1(N(C)C)CCCCC1 | inactive: -10.2%
CCN(CC)CC(C)C(C)OC(=O)C(O)(c1ccccc1)c1ccccc1 (centres undefined) | inactive: -5%
CN(C)C1(CNC(=O)c2cccc(Cl)c2)CCCCC1 | inactive: 0.75%
CN(C)C1(CNC(=O)c2ccccc2F)CCCCC1 | inactive: 1.25%
Cc1ccc(C(=O)NCC2(N3CCCCC3)CCCCC2)cc1 | inactive: -3.15%
CN(C)C1CCCC1OC(=O)C(O)(c1ccccc1)c1ccccc1 (centres undefined) | inactive: -3.35%
CN(C)c1ccc(C(=O)NCC2(N(C)C)CCCCC2)cc1 | inactive: 1.05%
CN(C)C1(CNC(=O)c2ccccc2[N+](=O)[O-])CCCCC1 | inactive: 0.25%
Cc1ccccc1C(=O)NCC1(N2CCCCC2)CCCCC1 | inactive: -0.75%
CCCCOc1ccccc1C(=O)NCC1(N(C)C)CCCCC1 | inactive: -0.05%
O=C(NCC1(N2CCCCC2)CCCCC1)c1cc(F)c(F)cc1Cl | inactive: -2.6%
C=CCN1CCN(CCOC(=O)C(O)(c2ccccc2)c2ccccc2)CC1 | inactive: -1.9%
O=C(NCC1(N2CCCCC2)CCCCC1)c1cccc(Br)c1 | inactive: -2.55%
Cc1cc(C(=O)NCC2(N3CCCCC3)CCCCC2)ccc1[N+](=O)[O-] | inactive: 1.95%

SMILES | potentiation
CCN1CCCC(OC(=O)C2(O)c3ccccc3C=Cc3ccccc32)C1 (centres undefined) | inactive: -2.8%
CCOc1cccc(C(=O)NCC2(N(C)C)CCCCC2)c1 | inactive: -0.15%
COc1ccc(C(=O)NCC2(N(C)C)CCCCC2)cc1 | inactive: -6.05%
CN(C)C1(CNC(=O)c2ccc(Br)cc2)CCCCC1 | inactive: -1.7%
COc1cc(C(=O)NCC2(N(C)C)CCCCC2)c([N+](=O)[O-])cc1OC | inactive: -1.55%
COc1ccc(C(=O)NCC2(N(C)C)CCCCC2)cc1Cl | inactive: 0.2%
COc1ccc(Cl)cc1C(=O)NCC1(N(C)C)CCCCC1 | inactive: 7.2%
COc1cccc(C(=O)NCC2(N3CCCCC3)CCCCC2)c1 | inactive: -5.24%
O=C(NCC1(N2CCCCC2)CCCCC1)c1cccc(Cl)c1 | inactive: -2.4%
O=C(OC1CN2CCC1CC2)C(CO)(c1ccccc1)c1ccccc1 (centres undefined) | inactive: 4.35%
COc1cccc(C(=O)NCC2(N3CCOCC3)CCCCC2)c1 | inactive: 2.6%
CC(C)COc1ccc(C(=O)NCC2(N(C)C)CCCCC2)cc1 | inactive: -0.55%
COc1ccc(Br)c(C(=O)NCC2(N3CCCCC3)CCCCC2)c1 | inactive: -0.15%
Cc1cccc(C(=O)NCC2(N(C)C)CCCCC2)c1 | inactive: 0.7%
COc1cc(C(=O)NCC2(N(C)C)CCCCC2)cc(OC)c1OC | inactive: 1.5%
CN(C)c1cccc(C(=O)NCC2(N(C)C)CCCCC2)c1 | inactive: -3.45%
CC(C)Oc1ccc(C(=O)NCC2(N(C)C)CCCCC2)cc1 | inactive: -1% and inactive: -3.5%
